The list shows a part of the results, in another mix than the full data. Calls of active or inactive are those of the source. Rule as the data show it: active = fold change above about 3.3; inconclusive = no clear call, values can overlap the other calls; inactive = below that.
Experiment: NF-kB upregulation, human neuronal cells – cell-based, HTS, primary screen (AID 1239)
Conditions: NF-kB reporter expression, at 12.5 µM, active compounds read high
For CC(C)C(=O)NC(Sc1ccccc1)C(Cl)(Cl)Cl (configuration not stated), the fold change was inactive: 1.09. For O=P(Nc1nccs1)(c1ccccc1)c1ccccc1, the fold change was inactive: 1.27. For c1nnnn1CCn1cnnn1, the fold change was inactive: 1.55. With CC(=O)NC(SC(=S)N(C)C)C(Cl)(Cl)Cl (configuration not stated) the fold change was active: 13.7. For C(Cc1nn[nH]n1)Cc1nn[nH]n1, the fold change was inactive: 1.01. In the case of O=C(OC1CN2CCC1CC2)c1cccc(Cl)c1 (configuration not stated), the fold change is reported as inactive: 1.01. With O=P(Nc1ccccn1)(c1ccc(Br)cc1)c1ccc(Br)cc1 the fold change was inactive: 1.26. In the case of COC(=O)c1cc2c(s1)N=C(c1ccccc1)N(C)P2(=O)N1CCOCC1 (configuration not stated), the fold change is reported as inactive: 0.92. In the case of CC(=O)NC(SC(=S)N(CC(C)C)CC(C)C)C(Cl)(Cl)Cl (configuration not stated), the fold change is reported as inactive: 1.96. In the case of Cc1ccc(OP(=O)(Nc2ccccn2)Oc2ccc(C)cc2)cc1, the fold change is reported as inactive: 0.69. In the case of CCC(=O)N1C2C3N(C(=O)CC)C1C1N(C(=O)CC)C(C(N1C(=O)CC)N3C(=O)CC)N2C(=O)CC, the fold change is reported as inactive: 1.1. With O=c1c2cc([N+](=O)[O-])ccc2[nH]c2c([N+](=O)[O-])cc([N+](=O)[O-])cc12 the fold change was inactive: 1.68. In the case of CCNC(=S)/N=C(\N)N[N+](=O)[O-], the fold change is reported as inactive: 1.19. In the case of O=C(NC1CCS(=O)(=O)C1)NP(=S)(Oc1ccccc1)Oc1ccccc1 (configuration not stated), the fold change is reported as inactive: 1.16. With c1ccc(-c2nn[nH]n2)c(-c2nn[nH]n2)c1 the fold change was inactive: 1.14. With CCOC(=O)NC(Sc1ccccc1)C(Cl)(Cl)Cl (configuration not stated) the fold change was inactive: 0.95. For CC(=O)Nc1ccc(Oc2c([N+](=O)[O-])cc([N+](=O)[O-])cc2[N+](=O)[O-])cc1, the fold change was inactive: 1.23. With O=P1(Nc2nc3ccc(Cl)cc3s2)COc2ccccc2O1 (configuration not stated) the fold change was inactive: 1.24. For CCOc1ccc(C2=NCC(CBr)S2)cc1 (configuration not stated), the fold change was inactive: 1.68. In the case of CC(C)(C)C(=O)NC(Sc1ccccc1)C(Cl)(Cl)Cl (configuration not stated), the fold change is reported as inactive: 0.86. With CC(C)CC(=O)NC(Sc1ccc(Cl)cc1)C(Cl)(Cl)Cl (configuration not stated) the fold change was inactive: 1.26. For Oc1ccccc1CNc1ccccn1, the fold change was inactive: 1.02. In the case of O=C(NC(Sc1ccncn1)C(Cl)(Cl)Cl)c1ccccc1 (configuration not stated), the fold change is reported as inactive: 1.13. In the case of Cc1c2non([O-])c-2c(C)[n+](=O)[n+]1[O-], the fold change is reported as inactive: 0.99. In the case of NC(=O)c1cc([N+](=O)[O-])cc([N+](=O)[O-])c1N, the fold change is reported as inactive: 1.04. With Cc1ccc(N/C(=N/P(=O)(N2CCOCC2)N2CCOCC2)N2CCOCC2)cc1 the fold change was inactive: 0.93. In the case of COc1ccccc1OP(=O)(Nc1ccc(C)cn1)Oc1ccccc1OC, the fold change is reported as inactive: 1.13. With CN1CCCC(OC(=O)C(c2ccccc2)c2ccccc2)C1 (configuration not stated) the fold change was inactive: 1.21. With Clc1ccc(Cl)c(NC2=NCC(CBr)S2)c1 (configuration not stated) the fold change was inactive: 1.06. With CCN(N=Nc1nonc1N)c1nonc1N the fold change was inactive: 1.15. In the case of Cc1cc(SC(NC(=O)c2ccc(F)cc2)C(Cl)(Cl)Cl)ncn1 (configuration not stated), the fold change is reported as inactive: 1.14. For CCOP(=O)(Nc1ccccc1)OCC, the fold change was inactive: 1.22. With O=[N+]([O-])c1ncn(CCn2ncnc2[N+](=O)[O-])n1 the fold change was inactive: 1.14. With CCN(/C(=N/P(=O)(N1CCOCC1)N1CCOCC1)N1CCOCC1)c1ccc(OC)cc1 the fold change was inactive: 1.23. With CC(C)=N/N=C(\N)N[N+](=O)[O-] the fold change was inactive: 1.1. For CN(C)C(=O)OCCc1n(C)cc[n+]1C, the fold change was inactive: 1.14. For CC1CCN(C(=O)Oc2c(Cl)cc(Cl)c3cccnc23)CC1, the fold change was inactive: 1.19. In the case of COc1ccc(C2=NCC(CBr)S2)cc1 (configuration not stated), the fold change is reported as inactive: 1.2. With O=[N+]([O-])c1cccc2n[nH]nc12 the fold change was inactive: 1.24. In the case of CC(=O)N1C2C3N(C(C)=O)C1C1N(C(C)=O)C(C(N1C(C)=O)N3C(C)=O)N2C(C)=O, the fold change is reported as inactive: 1.1. With Cc1ccc(NP(=O)(Oc2ccccc2)Oc2ccccc2)nc1 the fold change was inactive: 1.01. For CCc1nc2c(n1)c1c(non1O)c1c2no[n+]1[O-], the fold change was inactive: 1.04. For O=[N+]([O-])c1cc([N+](=O)[O-])c(CCNc2ccccc2)c([N+](=O)[O-])c1, the fold change was inactive: 1.37. With CCC(C)N(CC(C)C)C(=S)SC(NC(C)=O)C(Cl)(Cl)Cl (configuration not stated) the fold change was inactive: 1.32. In the case of COP1(=S)c2c(C)nn(CCC#N)c2N=C(c2ccc(F)cc2)N1C (configuration not stated), the fold change is reported as inactive: 1.18. With O=C(COc1ccccc1)OC1CN2CCC1CC2 (configuration not stated) the fold change was inactive: 1.21. In the case of O=P(Nc1ccccn1)(c1cccc2ccccc12)c1cccc2ccccc12, the fold change is reported as inactive: 1.12. With Cc1cc(SC(NC=O)C(Cl)(Cl)Cl)ncn1 (configuration not stated) the fold change was inactive: 1.22. For Cc1cc(SC(NC(=O)c2ccccc2)C(Cl)(Cl)Cl)nc(C(C)C)n1 (configuration not stated), the fold change was inactive: 1.42. For ClCCSc1nnc(-c2cccnc2)o1, the fold change was inactive: 1.34. For CC(C)NC(=O)NP(=O)(Oc1ccccc1)Oc1ccccc1, the fold change was inactive: 0.9. With CCN(CC)C(=S)SC(NC=O)C(Cl)(Cl)Cl (configuration not stated) the fold change was inactive: 1.01. In the case of O=[N+]([O-])c1cc([N+](=O)[O-])c(-c2ccn[nH]2)s1, the fold change is reported as inactive: 1.12. With Cc1ccc2nc3c(c(C)c2c1)CC(C(Cl)Cl)S3 (configuration not stated) the fold change was inactive: 1.98. With COc1ccc(N/C(=N/P(=O)(N2CCOCC2)N2CCOCC2)N2CCOCC2)cc1 the fold change was inactive: 1.27. For O=C(OC1CN2CCC1CC2)C12CC3CC(CC(C3)C1)C2 (configuration not stated), the fold change was inactive: 0.99. In the case of Cc1cc(=O)[nH]c(N[N+](=O)[O-])n1, the fold change is reported as inactive: 1.11. With Cc1c2c(nc3ccccc13)SC(C(Cl)Cl)C2 (configuration not stated) the fold change was inactive: 1.01. In the case of COc1ccc2nc(NP(=O)(c3ccccc3)c3ccccc3)sc2c1, the fold change is reported as inactive: 1.13. With Cc1ccc(NCCc2c([N+](=O)[O-])cc([N+](=O)[O-])cc2[N+](=O)[O-])cc1 the fold change was inactive: 1.03. With COc1cc(C2NCCC3(OCCO3)C2(C)C)cc(OC)c1OC (configuration not stated) the fold change was inactive: 1.05. With CCOP(=O)(Nc1cccc2ccccc12)OCC the fold change was inactive: 1.39. In the case of COc1cc(C(=O)NCC2(N3CCOCC3)CCCCC2)cc(Cl)c1OC(C)C, the fold change is reported as inactive: 0.87. For Cc1cccc(OCC(=O)OC2CN3CCC2CC3)c1 (configuration not stated), the fold change was inactive: 1.11. In the case of O=[N+]([O-])c1ccc2c(c1)nnn2O, the fold change is reported as inactive: 1.04. For CCOP1(=S)c2c(C)nn(CCC#N)c2N=C(c2ccc(F)cc2)N1C (configuration not stated), the fold change was inactive: 0.95. With CCOP1(=S)c2c(C)nn(CCC#N)c2N=C(c2ccccc2F)N1C (configuration not stated) the fold change was inactive: 0.9. With O=P(Nc1nccs1)(Oc1ccccc1)Oc1ccccc1 the fold change was inactive: 0.72. In the case of O=P(Nc1nccs1)(c1ccccc1)c1nc2ccccc2s1 (configuration not stated), the fold change is reported as inactive: 1.49. For O=P1(Nc2ncccn2)COc2ccccc2OC1, the fold change was inactive: 0.85. For Cc1ccc(OCC(=O)OC2CN3CCC2CC3)cc1 (configuration not stated), the fold change was inactive: 1. In the case of O=P1(Nc2ccc(Br)cn2)COc2ccccc2OC1, the fold change is reported as inactive: 1.08. For Cc1nn(-c2ccccc2)c2c1P(=O)(N1CCOCC1)N(C)C(c1ccccc1)=N2 (configuration not stated), the fold change was inactive: 0.91. With CC1CCC(C(C)C)C(OP(=O)(Nc2ccccn2)c2ccccc2)C1 (configuration not stated) the fold change was inactive: 0.47. For CN(C)C1(CNC(=O)c2ccc(S(C)(=O)=O)cc2)CCCCC1, the fold change was inactive: 1.01. With O=P1(Nc2ccccn2)COc2ccccc2OC1 the fold change was inactive: 1.02. In the case of Clc1n[nH]nc1-c1nn[nH][15n]1, the fold change is reported as inactive: 1.21.
